From US20260125679A1, “FINE-TUNING INFLAMMATION BY ALTERING 3'UTR LENGTH” (priority 2023, published 2026)

Test system: Sindbis virus (SINV)
Assay: Sindbis virus dual reporter infection of transfected HEK-293T cells (flow cytometry)
Format: cell-based
Source text: FIGS. 5A-5E. Ectopic HuB/C/D expression in HEK-293T cells protects against Sindbis virus (SINV) infection. (A-B) Effects of HuB/C/D ectopic expression on the global transcriptome. (A) Volcano plot showing differential expression of genes between WT HEK-293T_HuB/C/D (n=3 biological replicates) vs. WT HEK-293T_EV cells (n=3 biological replicates). Empty vector, EV. […] Ectopically expressed ELAVL2, -3, -4 (HuB, -C, -D) and interferon-stimulated genes (ISGs) are marked with a black border. […] The y-axis represents different pathways, and the x-axis represents the ratio of the differentially expressed genes. Darker red dots represent more significant enrichment. The circle size indicates the number of genes enriched in the pathway. (C-E) EV, HuB, or HuB/C/D transfected WT HEK-293T cells were infected with a Sindbis virus (SINV) dual reporter (MOI=1); BFP reports for SINV genomic mRNA and GFP for SINV subgenomic mRNA. For Pre-IFNβ set, cells were pre-treated with 0.05 nM of IFNβ for 24 hours pre-infection. For Post-IFNβ set, cells were treated with 0.05 nM of IFNβ 1 hour post-infection until harvest. […]
Cells were detached with accumax (Stem Cell Technologies) and fixed using 2% paraformaldehyde for 20 minutes at 4° C. Samples were resuspended in 3% FBS solution and analyzed using a BD LSR Fortessa flow cytometer (BD Biosciences).

B1: IFNβ: type I interferon used at 0.05 nM as pre- or post-infection treatment (protein, UniProt P01574 22-187, looked up)
Interferon beta: MSYNLLGFLQRSSNFQCQKLLWQLNGRLEYCLKDRMNFDIPEEIKQLQQFQKEDAALTIYEMLQNIFAIFRQDSSSTGWNETIVENLLANVYHQINHLKTVLEEKLEKEDFTRGKLMSSLHLKRYYGRILHYLKAKEYSHCAWTIVRVEILRNFYFINRLTGYLRN
0.05 nM IFNβ for 24 hours pre-infection
  antiviral activity against SINV: more potent antiviral activity
0.05 nM IFNβ from 1 hour post-infection until harvest
  antiviral activity against SINV: some protective effect
